Results reported in patent publication US20050192308A1 (priority 2001, published 2005).

Amino acid sequences for entries named in this document (tags omitted).
UniProt P41143, whole entry: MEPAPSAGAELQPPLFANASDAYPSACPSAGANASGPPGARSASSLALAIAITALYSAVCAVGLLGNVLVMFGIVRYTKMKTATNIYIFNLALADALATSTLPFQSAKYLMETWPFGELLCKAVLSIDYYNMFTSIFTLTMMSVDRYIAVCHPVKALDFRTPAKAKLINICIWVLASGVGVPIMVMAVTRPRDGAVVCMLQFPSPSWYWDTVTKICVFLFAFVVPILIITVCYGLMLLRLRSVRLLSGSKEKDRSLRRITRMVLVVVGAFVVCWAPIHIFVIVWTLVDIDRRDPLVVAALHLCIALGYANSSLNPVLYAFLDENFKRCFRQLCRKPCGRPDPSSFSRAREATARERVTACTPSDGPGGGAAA
UniProt P41146, whole entry: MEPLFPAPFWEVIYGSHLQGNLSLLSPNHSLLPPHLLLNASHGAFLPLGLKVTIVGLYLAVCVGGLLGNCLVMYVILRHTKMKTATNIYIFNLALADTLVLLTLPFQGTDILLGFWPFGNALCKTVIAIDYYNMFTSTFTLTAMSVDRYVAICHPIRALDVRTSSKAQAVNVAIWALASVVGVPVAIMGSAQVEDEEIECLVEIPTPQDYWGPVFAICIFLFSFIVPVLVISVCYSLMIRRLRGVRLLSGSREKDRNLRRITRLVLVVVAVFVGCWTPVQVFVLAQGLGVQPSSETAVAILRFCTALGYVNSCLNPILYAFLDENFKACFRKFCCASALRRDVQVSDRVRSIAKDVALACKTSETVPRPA
UniProt P41145, whole entry: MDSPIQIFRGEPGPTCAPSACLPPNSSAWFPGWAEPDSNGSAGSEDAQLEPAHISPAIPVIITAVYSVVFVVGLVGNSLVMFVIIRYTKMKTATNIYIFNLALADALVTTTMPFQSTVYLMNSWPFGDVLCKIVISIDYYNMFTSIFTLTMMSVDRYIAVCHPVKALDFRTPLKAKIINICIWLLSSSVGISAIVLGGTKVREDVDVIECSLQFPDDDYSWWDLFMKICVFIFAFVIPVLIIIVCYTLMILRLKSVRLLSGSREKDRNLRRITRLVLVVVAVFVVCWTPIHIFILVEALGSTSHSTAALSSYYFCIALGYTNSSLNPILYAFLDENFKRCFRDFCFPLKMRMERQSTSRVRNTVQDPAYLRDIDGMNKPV

Columns and labels:
Delta opioid receptor = Delta opioid receptor (Homo sapiens, UniProt P41143); experiment: [35S]GTPγS binding functional assay, delta; conditions: for Functional GTPgS Delta Efficacy % Met-Enk: relative to Met-Enkephalin control
ORL-1 receptor [1] = target: T1, ORL-1 receptor (Homo sapiens, UniProt P41146); experiment: ORL-1 binding assay ([3H]-nociceptin), Example 2; conditions: for Ki: read-out: Ki values ORL-1, [3H]-nociceptin, human recombinant cell line
Kappa opioid receptor [2] = target: T2, Kappa opioid receptor (Homo sapiens, UniProt P41145); experiment: [35S]GTPγS binding functional assay, kappa
ORL-1 receptor [3] = target: T1, ORL-1 receptor; experiment: [35S]GTPγS binding functional assay, ORL-1; conditions: relative to Nociceptin control
Kappa opioid receptor [4] = target: T2, Kappa opioid receptor; experiment: Kappa binding assay ([3H]-diprenorphine), Example 2; conditions: for Ki: read-out: Ki values Kappa, [3H]-diprenorphine, human recombinant cell line
Delta2 opioid receptor = Delta2 opioid receptor (Homo sapiens, UniProt P41143); experiment: Delta2 binding assay ([3H]-naltrindole), Example 2; conditions: for Ki: read-out: Ki values Delta, [3H]-naltrindole, human recombinant cell line

Structure (SMILES)	functional character at the delta receptor (Delta opioid receptor)	EC50 (Delta opioid receptor; read-out: Functional GTPgS Activity Delta EC50, mean±S.E.M.)	Functional GTPgS Delta Efficacy % Met-Enk (Delta opioid receptor)	Functional GTPgS Delta Efficacy % Met-Enk (Delta opioid receptor; listed as N-(3′-Butenyl) norbuprenorphine)	Functional GTPgS Delta Efficacy % Met-Enk (Delta opioid receptor; listed as butenyl derivative)	activity at orphanin receptor less than buprenorphine (ORL-1 receptor [1]; binding, Table 1 data)	Ki (ORL-1 receptor [1])	functional character at the kappa receptor (Kappa opioid receptor [2])	EC50 (Kappa opioid receptor [2]; read-out: Functional GTPgS Activity Kappa EC50, mean±S.E.M.)	Functional GTPgS Kappa Efficacy % U-69,593 (Kappa opioid receptor [2]; relative to U-69,593 control)	Functional GTPgS ORL-1 Efficacy % Noci (ORL-1 receptor [3])	activity at kappa receptor less than buprenorphine (Kappa opioid receptor [4]; binding, Table 1 data)	Ki (Kappa opioid receptor [4])	activity at delta receptor less than buprenorphine (Delta2 opioid receptor; binding, Table 1 data)	Ki (Delta2 opioid receptor)
C=CCCN1CCC23c4c5ccc(O)c4O[C@H]2[C@@]2(OC)CCC3(C[C@@H]2[C@](C)(O)C(C)(C)C)[C@H]1C5	partial agonist	32 nM	47 ± 0%	47 ± 0%	47%	20 fold	2800 nM	partial agonist	19 nM	16 ± 1%	19 ± 2%	100 fold	15.4 nM	60 fold	113 nM
CO[C@]12CC[C@@]3(C[C@@H]1[C@](C)(O)C(C)(C)C)[C@H]1Cc4ccc(O)c5c4[C@@]3(CCN1)[C@H]2O5							1190 nM						31 nM		856 nM
